Source: US10899786B2, “Nucleoside phosphate compound and preparation method and use thereof” (SICHUAN KELUN-BIOTECH BIOPHARMACEUTICAL CO., LTD., priority 2016, dated 2021)

Tested on: human primary hepatocytes
Test: Nucleoside triphosphate metabolite (3P) production in human primary hepatocytes
Assay type: in vitro ADME
Conditions: 25 μM test compound, 6 h, 37° C.

Row | Substance | 3P production amount [nM] | 3P production rate [pmol/10^6/min]
1 | (R)-((((R)-1-(6-amino-9H-purin-9-yl)propan-2-yl)oxy)methyl)-naphtha-1-yloxy-N-(2-(2-methylbenzyloxy)ethyl)-phosphoramide [Ex. 20 - Isomer B] | 625 | 1.73
2 | ((2R,3R,4R,5R)-5-(2,4-dioxo-3,4-dihydropyrimidin-1(2H)-yl)-4-fluoro-3-hydroxy-4-methyl tetrahydrofuran-2-yl)methyl-phenyl-((R)-1-(2-methylbenzyloxy)propan-2-yl)phosphoramidate | 4170 | 11.5
3 | ((2R,3R,4R,5R)-5-(2,4-dioxo-3,4-dihydropyrimidin-1(2H)-yl)-4-fluoro-3-hydroxy-4-methyltetrahydro furan-2-yl)methyl-phenyl-((S)-1-(2-methylbenzyloxy)propan-2-yl)phosphoramidate | 1273 | 3.5
4 | (R)-((((R)-1-(6-amino-9H-purin-9-yl)propan-2-yl)oxy)methyl)-naphtha-1-yloxy-N-(2-(2-methylbenzyloxy)ethyl)-phosphoramide [Ex. 20 - Isomer A] | 364 | 1.01
